According to ChEMBL document CHEMBL3751755, “Developing steroidal aromatase inhibitors-an effective armament to win the battle against breast cancer” (Eur J Med Chem, 2015):
pIC50, pKi: −log10 of the molar value.

By UniProt entry, the sequences of proteins in these tests, tags left out. Where a name states a change or a piece, a line headed by the entry shows the natural chain unless it says otherwise.
UniProt P11511: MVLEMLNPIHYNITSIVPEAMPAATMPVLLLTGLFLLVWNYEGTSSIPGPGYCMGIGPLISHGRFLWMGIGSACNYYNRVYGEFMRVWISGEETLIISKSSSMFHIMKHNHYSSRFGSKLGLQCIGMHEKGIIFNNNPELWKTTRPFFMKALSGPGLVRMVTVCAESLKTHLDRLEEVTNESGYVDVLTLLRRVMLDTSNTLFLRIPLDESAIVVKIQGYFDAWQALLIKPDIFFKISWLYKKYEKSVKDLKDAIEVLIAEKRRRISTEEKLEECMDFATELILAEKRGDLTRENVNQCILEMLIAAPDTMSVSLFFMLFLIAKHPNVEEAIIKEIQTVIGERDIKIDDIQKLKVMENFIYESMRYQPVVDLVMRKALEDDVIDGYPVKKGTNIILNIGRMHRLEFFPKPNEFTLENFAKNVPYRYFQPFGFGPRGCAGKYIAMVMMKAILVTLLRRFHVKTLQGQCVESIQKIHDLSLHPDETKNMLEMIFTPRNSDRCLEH

How the values were obtained:
[1] = target: T1, Aromatase (Homo sapiens, UniProt P11511); assay: Inhibition of human aromatase extracted from placental microsomes using [1beta-3H]androstenedione as substrate after 20 mins
[2] = target: T1, Aromatase

Row | Compound | pIC50 [1] | pKi [2]
1 | C[C@]12CCCC=C1CC[C@@H]1[C@@H]2CC[C@]2(C)C(=O)CC[C@@H]12 | 6.89 | –
2 | C[C@]12CCCC=C1[C@@H](O)C[C@@H]1[C@@H]2CC[C@]2(C)C(=O)CC[C@@H]12 | – | 7.92
